Literature values in patent publication US5153181A, “Pharmaceutical compositions comprising organic polymers containing inorganic anionic groups and method of prophylaxis and treatment of retrovirus infections in mammals using said compositions” (priority 1986, dated 1992).

Settings: known from the literature; cited from earlier work
In the case of dextran sulfate MW 8,000, the LD50 is listed as 2000 mg/kg. In the case of dextran sulfate MW 500,000, the LD50 is given as 150 mg/kg. For pentosan polysulfate MW 5,000, the LD50 is listed as 1000 mg/kg.
